According to US20150140123A1, “Protein expression analyses for identifying genotoxic compounds” (Merck Patent GmbH, priority 2012, published 2015):

Tested on: HepG2 cells
Method: HepG2 cells (Order No. HB-8065, Lot. 58483209, ATCC, Manassas, USA) were cultured in DMEM/F12 with L-Glutamine and 15 mM Hepes supplemented with 10% (v/v) FBS, 1% (v/v) penicillin (10 kU/ml)/streptomycin (10 mg/ml) solution, 0.1% (v/v) gentamicin (50 mg/ml), and 1 mM sodium pyruvate at 37° C. and 5% CO2 in culture flasks. Depending on the experiment, an appropriate number of cells were seeded onto plates after detaching of the cells using trypsin and cells were cultured at 37° C. and 5% CO2 for 24 h prior to treatment. All experiments were performed three times with cells of passages 4-20.
Cells were seeded onto black Poly-D-Lysin coated 96-well-plates (BD Biocoat, Franklin Lakes, USA) (0.02×10^6 cells/well) and left 24 h for adherence and then treated with test compounds at a maximum concentration of 1 mM which is recommended by the ICH S2(R1) guideline (EMA, 2011). For each compound, nine concentrations were tested with 2-fold serial dilutions. DMSO 1% (v/v) served as vehicle control for the experiments. The treatment procedure was different for direct-genotoxic and pro-genotoxic compounds. The treatment for direct genotoxic compounds was ongoing and was repeated daily over 48 h. Pro-genotoxic compounds were incubated for 6 h together with metabolic activation system (to limit the cytotoxic effect of the S9-mixture). After this period, cells were washed with cell media followed by 18-repeated daily over 48 h. The metabolic activation system used consisted of the following components and concentrations: 8 mM MgCl2, 32.8 mM KCl, 12 mM NADPH, 124 mM phosphate buffer and 2500 pmol/ml cytochrome P450 (CYP) content in the pre-mixture corresponding to 2.4 mM MgCl2, 9.8 mM KCl, 3.6 mM NADPH, 37.2 mM phosphate buffer, and 750 pmol/ml CYP as final concentrations after dilution 1:3.33 with cell culture media.
After treatment, cells were rinsed with PBS (Gibco Invitrogen, Karlsruhe, Germany), and then stained with 10 μM CellTracker Green 5-Chloromethylfluorescein Diacetate (CMFDA) (Invitrogen, Karlsruhe, Germany) in cell culture media for 30 min. CMFDA is per se non-fluorescent and is hydrolyzed by esterase in viable cells to a fluorescent-dye. The reaction with thiol groups leads to a cell-impermeable fluorescent-dye-adduct. The esterase activity can be used as an indicator for viability of cells (Papadopoulos et al., 1994, J Immunol Methods 177, 101-11). Afterwards, cells were washed with PBS and fixed with 3.7% Formaldehyde (Sigma-Aldrich, Taufkirchen, Germany) in PBS for 20 min. After that, cells were washed with PBS and blocked and permeabilized with 2% donkey serum (Millipore, Schwalbach, Germany) and 0.25% Triton X-100 (Sigma-Aldrich, Taufkirchen, Germany) in PBS for 30 min. Primary antibodies were diluted in Blocking/Permeabilization solution to final concentrations of 4 μg/ml anti-p-Chk1 (Ser345) goat polyclonal antibody IgG (santa cruz, Santa Cruz, USA), 4 μg/ml anti-p-ATM (Ser1981) mouse monoclonal antibody IgG1K (Millipore, Schwalbach, Germany) and added to the cells. After incubation for 16-18 h, cells were washed with 0.05% Tween 20 (Calbiochem, Darmstadt, Germany) in PBS, and the secondary antibody/16 μM Hoechst staining solution Blocking/Permeabilization solution was added. Secondary antibodies were diluted 1:400 (Alexa Fluor 555 donkey anti-goat, Alexa Fluor 647 donkey anti-mouse, Invitrogen, Karlsruhe, Germany). After an incubation of 1 h, followed by two additional washing steps with 0.05% Tween 20, cells were washed with PBS and finally PBS was added and cells were measured.
Image acquisition was performed on the ArrayScan VTI HCS Reader (Cellomics, Pittsburgh, USA) using a 20× objective. To detect enough cells, 50 images starting at the middle of each well were gathered.
• Channel 1: selected cell count per valid field • Channel 2: CMFDA cytoplasm average intensity • Channel 3: p-Chk1 (Ser345) nucleus average intensity • Channel 4: p-ATM (Ser1981) nucleus average intensity

Substance	CMFDA +S9 highest conc. <50% cytotox. over control [µM]	CMFDA −S9 highest conc. <50% cytotox. over control [µM]	SCC +S9 highest conc. <50% cytotox. over control [µM]	SCC −S9 highest conc. <50% cytotox. over control [µM]
Tert-butyl alcohol	1000	1000	1000	1000
Trisodium EDTA trihydrate	1000	1000	1000	500
